# Assay results reported in ChEMBL document CHEMBL1157014, “Synthesis, characterization and biological evaluation of some thiourea derivatives bearing benzothiazole moiety as potential antimicrobial and anticancer agents” (Eur J Med Chem, 2010).
# System: Escherichia coli
# Conditions: ATCC 25922
sequence,measurement,value
GENTAMICIN,MIC,0.5 µg/mL
